# Ab-14 heavy chain CDR variants: yeast mating affinities

Reference: Li et al. 2023, doi:10.1038/s41467-023-39022-2. File: FLAb, binding data.

Target: peptide PDVDLGDISGINAS, taken from heptad repeat 2 (HR2) of SARS-CoV-2 spike.

Parent scFv Ab-14: VH joined to VL by a 15-residue (Gly4Ser)3 linker. Changes lie in the heavy chain CDRs alone.
VH: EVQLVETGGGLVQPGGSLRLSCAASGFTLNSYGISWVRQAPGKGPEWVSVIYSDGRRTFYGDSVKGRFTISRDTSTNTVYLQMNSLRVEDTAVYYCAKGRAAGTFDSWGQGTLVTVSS
VL: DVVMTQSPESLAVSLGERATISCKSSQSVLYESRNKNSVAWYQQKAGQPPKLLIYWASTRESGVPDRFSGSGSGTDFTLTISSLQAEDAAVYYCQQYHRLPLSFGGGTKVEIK

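This is the validation round: designs drawn from the data on random variants, tested in the same kind of assay. Their group label is 14H_En_Gibbs (En: ensemble of fine-tuned language models; Gibbs: Gibbs sampling). The assay is AlphaSeq: two haploid yeast populations carry antibody and antigen on their surface. Pairs that bind mate more often; barcode pairs of the diploids are counted by sequencing. Scores were corrected for input abundance and mapped to Kd with protein pairs of known affinity run in the same pool. Each pool was mated in six replicate cultures.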

Each variant is given by its three heavy chain CDRs, as the data file delimits them; those of the parent are GFTLNSYGIS, VIYSDGRRTFYGDSVK, GRAAGTFDS.
Values are log10 of the apparent Kd in nM; lower means stronger binding.
An entry "nd" has no value in the source: the pair was not observed among the diploids in that replicate. This suggests poor binding but is not conclusive.
Values of this round are not directly comparable with the first-round values of the same sequences.
As a blank, each scFv also met three strains without target: over all heavy chain designs, 1% of these pairings were detected, typically at 2.08 and seldom below 0.84. The control count says in how many pairings with the empty strains this scFv gave a signal, with their mean in brackets.
The parent sequence was in this pool as ten entries: three were never detected, three once, and four in most replicates, with averages from 0.34 to 2.37.
The authors averaged sequences with at least three values out of six and counted those with two or fewer as poor binders.

CDR-H1 | CDR-H2 | CDR-H3 | log10 Kd, replicates | empty controls
GFNIDEYGIS | VIYADGKRSMYADKVK | GVDADTMMD | nd nd nd nd nd nd | 1 of 18 (2.59)
GFNLDEYGIS | VIYADGMRTFVTEAVK | GSNADFVLA | nd nd nd nd nd nd | 0 of 18
GEELDEYGIS | VIYADGRKQSYSDSVK | GAIAGNFDA | nd nd nd nd nd nd | 0 of 18
GFDLEEMGVS | VIYHDGIRTAYKQKVK | GQAAGTFDL | nd nd nd nd nd nd | 0 of 18
GFQLDEYGIS | VIYADGQRTAYSKNVK | GTFDTKRID | nd nd nd nd nd nd | 0 of 18
GQDLNEYGIS | VIYADGIRTAYAISVK | GYHGSQFDI | nd nd nd nd nd nd | 0 of 18
GFEIEEYGIS | VIYADGVRTMYTDNVK | GNILGLAMT | 1.12 1.68 1.78 1.22 1.88 2.08 | 0 of 18
GFNLEEYGIS | VIYADGVRASYAENVK | AGGNFIAIG | nd nd nd nd nd nd | 0 of 18
GQDLNEYGIS | VIYADGRRTMYANDVK | GKQGGIFED | 1.79 nd nd nd nd nd | 0 of 18
GEDLLEYGIS | VIYADGSRVAYTNAVK | GNLAGVFDL | 2.42 1.49 1.80 2.68 1.87 2.31 | 2 of 18 (2.51)
GEELEEYGIS | VIYADGRKQSYSDSVK | GAIAGNFDM | nd nd nd nd nd nd | 0 of 18
GFNLDEYGIS | VIYADGQRTAYAQHVK | GTGGMDRGV | nd nd nd 1.14 nd nd | 0 of 18
GDSLNEYGIS | VIYADGKRMVYADSVK | GSESGWFDI | nd nd nd nd nd nd | 0 of 18
GKNLDEYGIS | VIYADGMRSMYADSVK | GGIDGWTFI | nd nd nd nd nd nd | 1 of 18 (2.44)
GKDLDEYGIS | VIYADGRRTFALNTVK | GEIGGDLNM | nd nd nd nd nd nd | 0 of 18
GFEIDEFGIS | VIYADGKRTSYSDTVK | GQLGNAFDL | nd nd nd nd nd nd | 0 of 18
GMNLDEYGIS | VIYADGMRNAYRDTVK | GAHSGGLVT | nd nd nd nd nd nd | 1 of 18 (1.96)
GQSLNEYGIS | VIYADGHRKMYANDVK | GKIGAIFED | nd nd nd nd nd nd | 0 of 18
GFNLDEYGIS | VIYADGTRTSYQDNVK | GVTGGHDVT | nd nd nd nd nd nd | 0 of 18
GFNLNEYGIS | VIYADGIRSNYADSFK | GKSNNFFID | nd nd nd nd nd nd | 1 of 18 (2.64)
GFNLNEYGIS | VIYADGRRRAVIDQVK | GLVSFMFDL | nd nd nd nd nd nd | 0 of 18
GFNLLEYGIS | VIYADGKRTMYTNAVK | GMINDGVMA | nd nd nd nd nd nd | 0 of 18
GESLNEYGIS | VIYADGLRSKYADKFK | GQEAGYFDV | nd nd nd nd nd nd | 1 of 18 (2.87)
GFELSEYGIS | VIYADGVRSFVTQDVK | GQKGGVFNV | nd nd nd nd nd nd | 0 of 18
GFGLMDYGIS | VIYADGMRTSYANSFK | GAHAGTFDE | 0.31 0.27 0.55 0.19 0.48 0.57 | 1 of 18 (2.30)
GKDLEEYGIS | VIYADGFRTAYKNQVK | GSGVIDTMV | nd nd nd nd nd nd | 0 of 18
GFDLAEYGVS | VIYADGKRTAYADHVK | GVNLGFFDL | nd nd nd nd 4.67 nd | 1 of 18 (2.37)
GFDLEEMGIS | VIYADGSRKVYQDAVK | GEVSGDFDK | nd 2.51 nd nd nd nd | 1 of 18 (3.18)
GKDLDEYGIS | VIYADGMRTFYLNTVK | GEDGFDLNQ | nd nd nd nd nd nd | 0 of 18
GFELDEYGIS | VIYADGKRKAYDDAVK | GFTVGVKLI | nd nd nd nd nd nd | 0 of 18
GEDLDEYGIS | VIYADGVRTVAQDKVK | GELSGNFAQ | nd nd nd nd nd nd | 0 of 18
GYSLEDYGIS | VIYADGRRTAYAADVK | GQEGNVVAG | 0.70 -0.39 -0.79 -0.74 -0.15 -0.79 | 0 of 18
GFDINEYGIS | VIYADGMRKAYVQNVK | GENARSVQI | nd nd nd nd nd nd | 0 of 18
GKGLDEYGIS | VIYADGVRKAYAQSVK | GQVGFFIRV | nd nd nd nd nd nd | 0 of 18
GFNLEEYGIS | VIYADGFRAAYKDKVK | GDDILLGVD | nd nd nd nd nd nd | 0 of 18
GFDLDQYGIS | VIYADGMRSVYADAVK | GHEGGIFLV | nd nd nd nd nd nd | 0 of 18
GFSLNEYGIS | VIYADGKRMVYADSVK | GSESGWFDI | nd nd nd nd 3.55 nd | 0 of 18
GKSLDEYGIS | VIYADGLRMVYANSVK | GQSTDTLLL | nd nd nd nd nd nd | 1 of 18 (0.45)
GFDLDQYGIS | VIYADGKRMAYTADVK | GVQGGNALV | nd nd nd nd nd nd | 0 of 18
GFNLEEYGIS | VIYADGKRTFYIDAVK | GTWYVFGLG | nd nd nd nd nd nd | 0 of 18
GFDLTEYGIS | VIYADGRRTQYQDAVK | GLNGGMLVV | nd nd nd nd nd nd | 0 of 18
GFNLDEYGVS | VIYADGKRCQYANNVK | GENAGFFML | nd nd nd nd nd nd | 0 of 18
GFSLDEYGIS | VIYADGARAFYTNKVK | GVEVGDLGT | nd nd nd nd 2.81 nd | 1 of 18 (2.16)
GFGLGEYGIS | VIYADGMRAAYVTSVK | GYEAGTFFT | nd nd nd nd nd nd | 0 of 18
GFDLDKYGIS | VIYADGKRVAYTDDVK | GVTGGMALV | nd nd nd nd nd 1.40 | 2 of 18 (1.81)
GFELDEMGIS | VIYADGMRAAYSDNVK | GDNRGIFHM | nd nd nd nd nd nd | 0 of 18
GFDINEYGIS | VIYADGNRTMYQDQVK | GFNAGSFVI | nd nd nd nd nd nd | 0 of 18
GFDLDEYGIS | VIYADGMRKAYLDSFK | GIYGNGLWF | nd nd nd nd nd nd | 0 of 18
GFKIDEYGIS | VIYADGHRTAYSEQVK | GDNMGFMVE | nd nd nd nd nd nd | 1 of 18 (2.39)
GFDLNEFGIS | VIYADGRQTFYTDNVK | GGNQGTFVL | nd nd nd nd nd nd | 1 of 18 (1.37)
GFEVDEYGIS | VIYADGKRSMYADKVK | GVIADGMHV | nd nd nd nd nd 2.71 | 0 of 18

A selection of 6 entries from above:

CDR-H1	CDR-H2	CDR-H3	log10 Kd, replicates	empty controls
GFSLNEYGIS	VIYADGKRMVYADSVK	GSESGWFDI	nd nd nd nd 3.55 nd	0 of 18
GQSLNEYGIS	VIYADGHRKMYANDVK	GKIGAIFED	nd nd nd nd nd nd	0 of 18
GFEIDEFGIS	VIYADGKRTSYSDTVK	GQLGNAFDL	nd nd nd nd nd nd	0 of 18
GFGLMDYGIS	VIYADGMRTSYANSFK	GAHAGTFDE	0.31 0.27 0.55 0.19 0.48 0.57	1 of 18 (2.30)
GKNLDEYGIS	VIYADGMRSMYADSVK	GGIDGWTFI	nd nd nd nd nd nd	1 of 18 (2.44)
GFELSEYGIS	VIYADGVRSFVTQDVK	GQKGGVFNV	nd nd nd nd nd nd	0 of 18